Among the data in patent US5753673A, “Quinolinecarboxylic acid derivatives” (Taisho Pharmaceutical Co., Ltd., priority 1994, dated 1998) are IC50 values, retold here.

Chains of the proteins cited; added tags and fusions are not shown. Residues count along the entry.
UniProt P61169, whole entry: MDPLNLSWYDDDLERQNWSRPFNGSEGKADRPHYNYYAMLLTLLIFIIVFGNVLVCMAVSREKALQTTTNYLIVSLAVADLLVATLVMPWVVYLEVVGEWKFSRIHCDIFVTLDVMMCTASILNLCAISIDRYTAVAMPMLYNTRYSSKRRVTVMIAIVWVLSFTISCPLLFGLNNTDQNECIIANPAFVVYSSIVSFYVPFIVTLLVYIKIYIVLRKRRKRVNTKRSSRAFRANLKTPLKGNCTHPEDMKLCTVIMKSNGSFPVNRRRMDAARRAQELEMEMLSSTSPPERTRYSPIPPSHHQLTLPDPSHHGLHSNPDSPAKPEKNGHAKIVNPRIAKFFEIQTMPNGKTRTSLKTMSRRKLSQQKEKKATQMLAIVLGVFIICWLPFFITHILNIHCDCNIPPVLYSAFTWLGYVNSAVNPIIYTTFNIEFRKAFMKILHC
UniProt P35563, 24-483: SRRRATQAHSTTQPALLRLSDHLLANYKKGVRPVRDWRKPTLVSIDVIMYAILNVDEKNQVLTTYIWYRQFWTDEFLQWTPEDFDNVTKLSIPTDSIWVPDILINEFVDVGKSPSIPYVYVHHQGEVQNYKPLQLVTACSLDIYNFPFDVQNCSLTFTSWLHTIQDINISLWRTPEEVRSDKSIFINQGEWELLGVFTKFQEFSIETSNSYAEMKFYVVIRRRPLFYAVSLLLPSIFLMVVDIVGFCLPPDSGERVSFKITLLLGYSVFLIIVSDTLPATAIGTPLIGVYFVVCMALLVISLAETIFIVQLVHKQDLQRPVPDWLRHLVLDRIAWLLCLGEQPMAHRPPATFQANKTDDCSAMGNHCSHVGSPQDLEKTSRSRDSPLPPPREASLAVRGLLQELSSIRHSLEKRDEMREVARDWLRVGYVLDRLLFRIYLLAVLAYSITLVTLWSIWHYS

Assay [1] has as its target T1, Dopamine D2 receptor (Rattus norvegicus, UniProt P61169).
T1 construct: The rat striatum was homogenized in 50 mM Tris hydrochloride buffer; from tissue; host or cells: rat striatal membranes
Put plainly: Selectivity for receptors: dopamine D2 receptor, inhibition of [^3 H] raclopride binding to rat striatal membrane. How it is done:
(§1) The selectivity for receptors of the quinolinecarboxylic acid derivatives of the present invention was examined by the following method.
The affinity to dopamine 2 (D2) receptor was examined according to the method described in MALMBERG, A. et al., Mol Pharmacol., 43, 749-754 (1993).
The affinity for D2 receptor was studied in terms of the inhibition of [^3 H] raclopride (Daiichi Kagaku Yakuhin Co.) binding to rat striatal membrane. The rat striatum was homogenized in 50 mM Tris hydrochloride buffer (pH 7.4) followed by centrifugation at 48,000 G. The pellet was washed once with Tris hydrochloride buffer. Then the pellet was suspended in 50 mM Tris hydrochloride buffer (containing 120 mM NaCl, 5 mM KCl, 2 mM CaCl2, 1 mM MgCl2, pH 7.4) and provided for use as the membrane preparation. The membrane preparation (0.5 mg protein/ml) was reacted with 1 nM [3H] raclopride at 25° C. for 60 minutes. After the reaction, the membrane was caught by a harvester. Non-specific binding was defined as that taken in the presence of 10 μM haloperidol.

The target in assay [2] is T2, 5-HT3 receptor (Rattus norvegicus, UniProt P35563).
T2 construct: The rat cerebral cortex was homogenized in 50 mM Tris hydrochloride buffer; from tissue; host or cells: rat cerebral cortex membranes
Put plainly: Selectivity for receptors: 5-HT3 receptor, inhibition of [^3 H]GR65630 binding to rat cerebral cortex membrane. How it is done:
as §1
The affinity for serotonin 3 receptor was examined by the method described in […], G. J. et al., Nature (London), 330, 746-748 (1987).
The affinity to serotonin 3 (5-HT3) was examined in terms of inhibition of [^3 H]GR65630 binding (Daiichi Kagaku Yakuhin Co.) binding to rat cerebral cortex membrane. The rat cerebral cortex was homogenized in 50 mM Tris hydrochloride buffer (pH 7.4) followed by centrifugation at 48,000 G. The precipitates were washed once with Tris hydrochloride buffer. Then the precipitates were suspended in 50 mM Tris hydrochloride buffer and provided for use as the membrane preparation. The membrane preparation was reacted with 0.2 nM [^3 H]GR65630 at 37° C. for 30 minutes. After the reaction, the membrane was caught by a harvester. Non-specific binding was defined as the binding taken in the presence of 1 μM zacopride.

By IC50 is commonly meant the concentration needed to halve the response being measured. `COc1cc(N)c(Cl)cc1C(=O)N[C@@H]1CCN(CCCOc2ccc(F)cc2)C[C@@H]1OC` (relative stereo) [Comparative Compound 1, Cisapride, reference compound]: the IC50 in assay [1] was found to be 0.107 µM; in assay [2], 0.0977 µM.
